Test system: NGAL expression in SKBr3 cell line
Test: NGAL expression in breast cancer cell line
Type: cell-based, human
From the text: As mentioned elsewhere herein, NGAL is a lipocalin 2 involved in inducing apoptosis in normal hematopoietic cells. The mouse form of NGAL (24p3) is required for marrow and spleen invasion in mouse leukemia models. […] Importantly, over expression of NGAL correlates with patients that have a poor prognosis. In microarray studies, 21 of 133 breast cancer patients expressed very high levels (6-10 fold) of NGAL mRNA. Higher expression of NGAL correlated with increasing tumor size (P<0.013). The correlation with ER negativity and NGAL expression was also significant (P<0.001). Similarly, there was a strong positive correlation with HER2/neu expression (P<0.003). In addition, HER2+ER− patients also had significant levels of HER2/neu (P<0.01). […] The level of NGAL protein expression in cells and conditioned medium (CM) was much higher in the SKBr3 human breast cancer cell line (HER2/neu+, ER−) than MCF-7 cells (HER2/neu-, ER+). […] The Herceptin HER2 antibody and PI-3 kinase inhibitor LY294002 inhibited NGAL expression in the SKBr3 cell line. Activated Akt was also needed for optimum expression of NGAL. NGAL transcriptional sequences contain a consensus NF-kB binding site and since Akt is known to activate NF-kB, the inventors predict that NGAL expression is mediated through NF-kB. […]

In the case of Herceptin: the anti-HER2 antibody, the NGAL expression is reported as “inhibited”.
